Measurements taken from PMC3761409 (Journal of molecular recognition : JMR, 2013).

The chains behind the UniProt entries cited, without tags or fusion partners. Residues count along the entry.
UniProt P10415, 1-205: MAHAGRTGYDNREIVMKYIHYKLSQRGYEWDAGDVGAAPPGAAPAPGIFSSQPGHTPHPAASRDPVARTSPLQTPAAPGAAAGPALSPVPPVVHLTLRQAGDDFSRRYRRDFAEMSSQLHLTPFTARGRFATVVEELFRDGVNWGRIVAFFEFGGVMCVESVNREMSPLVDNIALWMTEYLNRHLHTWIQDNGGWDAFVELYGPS

Target: Human Bcl2 (residues 1-205) (Homo sapiens, UniProt P10415)
Assay: Isothermal titration calorimetry
Settings: ITC, one-site binding model, Sodium phosphate buffer containing 100mM NaCl, 25°C, pH 7, ± one SD of at least three independent measurements

Structure (SMILES)	ΔH [kcal/mol]
CSCC[C@H](NC(=O)[C@H](CCCNC(=N)N)NC(=O)[C@H](CCCNC(=N)N)NC(=O)[C@H](CC(C)C)NC(=O)[C@H](CCC(=O)O)NC(=O)[C@H](C)NC(=O)CNC(=O)[C@H](Cc1ccc(O)cc1)NC(=O)[C@H](CCCNC(=N)N)NC(=O)[C@H](CCC(N)=O)NC(=O)[C@H](C)NC(=O)[C@H](C)NC(=O)[C@@H](N)Cc1c[nH]c2ccccc12)C(=O)N[C@@H](C)C(=O)N[C@@H](CC(=O)O)C(=O)N[C@@H](CCC(=O)O)C(=O)N[C@@H](Cc1ccccc1)C(=O)N[C@H](C(=O)N[C@@H](CC(=O)O)C(=O)N[C@@H](CO)C(=O)O)C(C)C [Bad_S+4A]	-6.16 ± 0.16
CSCC[C@H](NC(=O)[C@H](CCCNC(=N)N)NC(=O)[C@H](CCCNC(=N)N)NC(=O)[C@H](CC(C)C)NC(=O)[C@H](CCC(=O)O)NC(=O)[C@H](C)NC(=O)CNC(=O)[C@H](Cc1ccc(O)cc1)NC(=O)[C@H](CCCNC(=N)N)NC(=O)[C@H](CCC(N)=O)NC(=O)[C@H](C)NC(=O)[C@H](C)NC(=O)[C@@H](N)Cc1c[nH]c2ccccc12)C(=O)NCC(=O)N[C@@H](CC(=O)O)C(=O)N[C@@H](CCC(=O)O)C(=O)N[C@@H](Cc1ccccc1)C(=O)N[C@H](C(=O)N[C@@H](CC(=O)O)C(=O)N[C@@H](CO)C(=O)O)C(C)C [Bad_S+4G]	-5.75 ± 0.05
